From PubChem BioAssay AID2247 (Johns Hopkins Ion Channel Center, 2010)
Only a part is listed here, and it is no random draw. Some structures show a salt or complex split into parts, the way the source records it. Calls of active or inactive are those of the source.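 Rule for the calls: active = B-score over 3 SD under the library average, no early fluorescence shift, positive overall ratio signal; inactive = the rest.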

Sequences of proteins named here, by UniProt entry; tags and fusion partners are left off.
UniProt Q9QUQ5, whole entry: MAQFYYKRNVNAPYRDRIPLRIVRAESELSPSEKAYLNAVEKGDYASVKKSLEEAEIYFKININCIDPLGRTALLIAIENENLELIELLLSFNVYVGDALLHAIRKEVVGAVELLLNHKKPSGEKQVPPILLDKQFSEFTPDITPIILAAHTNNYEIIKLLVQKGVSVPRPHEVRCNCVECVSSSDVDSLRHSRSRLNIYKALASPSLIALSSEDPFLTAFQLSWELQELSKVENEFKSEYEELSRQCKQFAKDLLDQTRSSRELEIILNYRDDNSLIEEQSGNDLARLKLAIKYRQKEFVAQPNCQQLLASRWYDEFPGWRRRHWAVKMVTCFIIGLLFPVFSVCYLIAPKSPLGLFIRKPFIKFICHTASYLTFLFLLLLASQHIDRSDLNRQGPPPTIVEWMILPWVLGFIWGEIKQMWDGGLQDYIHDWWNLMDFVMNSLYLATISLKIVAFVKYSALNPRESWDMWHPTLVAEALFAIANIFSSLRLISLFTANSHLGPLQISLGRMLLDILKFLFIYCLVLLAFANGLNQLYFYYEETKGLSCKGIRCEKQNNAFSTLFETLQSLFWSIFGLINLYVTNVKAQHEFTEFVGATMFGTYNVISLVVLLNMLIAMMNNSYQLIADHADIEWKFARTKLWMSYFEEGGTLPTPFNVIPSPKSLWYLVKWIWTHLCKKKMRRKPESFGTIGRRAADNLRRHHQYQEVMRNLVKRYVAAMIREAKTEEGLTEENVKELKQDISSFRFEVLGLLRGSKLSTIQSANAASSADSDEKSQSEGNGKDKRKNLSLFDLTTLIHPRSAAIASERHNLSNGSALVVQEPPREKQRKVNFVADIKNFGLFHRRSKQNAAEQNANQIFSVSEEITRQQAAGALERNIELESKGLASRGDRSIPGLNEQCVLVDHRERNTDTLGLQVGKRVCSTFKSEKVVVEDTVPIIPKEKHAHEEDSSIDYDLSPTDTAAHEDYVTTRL

Molecular target: Short transient receptor potential channel 4 (Mus musculus) (UniProt Q9QUQ5)
Experiment: blockers of DAMGO-evoked TRPC4 calcium flux – Fluo4 calcium, HEK293 TRPC4beta/mu-opioid cells, primary screen (AID 2247)
Conditions: at 10 µM

Row | Compound | outcome
1 | CN(C)C(=O)Oc1noc2ccccc12 | inactive
2 | Cc1ccccc1OP(=O)(Nc1ccccn1)Oc1ccccc1C | inactive
3 | O=C(NC1CCS(=O)(=O)C1)NP(=S)(Oc1ccccc1)Oc1ccccc1 (stereo not drawn) | inactive
4 | CCNC(=S)/N=C(\N)N[N+](=O)[O-] | inactive
5 | Cc1ccc(NP(=O)(Oc2cccc(C)c2)Oc2cccc(C)c2)nc1 | inactive
6 | CCOC(=O)NC(Sc1ccccc1)C(Cl)(Cl)Cl (stereo not drawn) | inactive
7 | c1ccc(-c2nn[nH]n2)c(-c2nn[nH]n2)c1 | inactive
8 | CCOC(=O)c1ccc(NP(C)(=O)Oc2ccc(F)cc2)cc1 (stereo not drawn) | inactive
9 | COc1ccc(OP(C)(=O)Nc2ccc(SC(F)(F)F)cc2)cc1 (stereo not drawn) | inactive
10 | O=C(OC1CN2CCC1CC2)c1ccc([N+](=O)[O-])cc1 (stereo not drawn) | inactive
11 | CC(=O)c1ccc(N2CC2c2ccncc2)cc1 (stereo not drawn) | inactive
12 | C[C@H]1OP(=O)(Oc2ccccc2)C[C@@H]2O[C@@H]21 (stereo partly drawn) | inactive
13 | C[C@@H]1C=CCP(=O)(Oc2ccccc2)O1 (stereo partly drawn) | inactive
14 | O=C(OCCN1CCN(CCOCc2ccccc2)CC1)C(O)(c1ccccc1)c1ccccc1 | inactive
15 | CC(=O)Nc1ccc(Oc2c([N+](=O)[O-])cc([N+](=O)[O-])cc2[N+](=O)[O-])cc1 | inactive
16 | CC(=O)Nc1ccc([As](=O)(O)O)c(O)c1 | inactive
17 | COc1ccc2c(c1O)-c1c(O)c(OC)cc3c1[C@H](C2)[N+](C)(C)CC3.O=[N+]([O-])c1cc([N+](=O)[O-])c([O-])c([N+](=O)[O-])c1[O-] | inactive
18 | CCOc1ccc(C2=NCC(CBr)S2)cc1 (stereo not drawn) | inactive
19 | O=P1(Nc2nc3ccc(Cl)cc3s2)COc2ccccc2O1 (stereo not drawn) | inactive
20 | CP(=O)(Nc1ccccc1F)Oc1ccccc1 (stereo not drawn) | inactive
21 | CC(C)c1ccc(OP(C)(=O)Nc2ccc(SC(F)(F)F)cc2)cc1 (stereo not drawn) | inactive
22 | CC(C)(C)C(=O)NC(Sc1ccccc1)C(Cl)(Cl)Cl (stereo not drawn) | inactive
23 | CP(=O)(Nc1ccc2c(c1)OCCO2)Oc1ccccc1 (stereo not drawn) | inactive

Row | Compound | outcome
24 | CP(=O)(Nc1ccc(SC(F)(F)F)cc1)Oc1ccc(F)cc1 (stereo not drawn) | inactive
25 | O=P(Nc1nccs1)(c1ccccc1)c1ccccc1 | inactive
26 | CC(C)C(=O)NC(Sc1ccccc1)C(Cl)(Cl)Cl (stereo not drawn) | inactive
27 | CCOP(C)(=S)SCC(=O)NC(C)(CC)C(=O)O (stereo not drawn) | inactive
28 | c1nnnn1CCn1cnnn1 | inactive
29 | CC(=O)NC(SC(=S)N(C)C)C(Cl)(Cl)Cl (stereo not drawn) | inactive
30 | O=[N+]([O-])c1ccc(OP2(=O)COCCO2)cc1 (stereo not drawn) | inactive
31 | O=[N+]([O-])c1ncn(CCn2cnc([N+](=O)[O-])n2)n1 | inactive
32 | O=[N+]([O-])c1ccc(O)c(/C=N/Nc2ccc([N+](=O)[O-])cc2[N+](=O)[O-])c1 | inactive
33 | Cc1cc(-c2cccc3ccccc23)c(C)cn1.O=[N+]([O-])c1cc([N+](=O)[O-])c(O)c([N+](=O)[O-])c1 | inactive
34 | O=[N+]([O-])c1cc([N+](=O)[O-])c(NCC2CCS(=O)(=O)C2)c([N+](=O)[O-])c1 (stereo not drawn) | inactive
35 | O=[As](O)(c1ccccc1)c1ccc(O)cc1 | inactive
36 | C(Cc1nn[nH]n1)Cc1nn[nH]n1 | inactive
37 | Nc1ccc([As](=O)(O)c2ccc([N+](=O)[O-])cc2)cc1 | inactive
38 | O=C(OC1CN2CCC1CC2)c1cccc(Cl)c1 (stereo not drawn) | inactive
39 | COc1ccc(OP(C)(=O)Nc2cccc(Br)c2)cc1 (stereo not drawn) | inactive
40 | CN(C)C1(CNC(=O)c2ccc(Cl)c(S(N)(=O)=O)c2)CCCCC1 | inactive
41 | O=P(Nc1ccccn1)(c1ccc(Br)cc1)c1ccc(Br)cc1 | inactive
42 | C[C@H]1OP(=O)(Oc2ccccc2)[C@H](O)[C@H](O)[C@H]1N=[N+]=[N-] (stereo partly drawn) | inactive
43 | O=P(Nc1nc2ccccc2s1)(c1ccccc1)c1ccccc1 | inactive
44 | CN(C)CCOC(=O)C(O)(c1ccccc1)C1CCCCC1 (stereo not drawn) | inactive
45 | COc1ccc(NP(C)(=O)Oc2ccccc2OC)cc1 (stereo not drawn) | inactive
46 | CN1CCCCC1COC(=O)C1(O)c2ccccc2CCc2ccccc21 (stereo not drawn) | inactive

Row | Compound | outcome
47 | COc1ccccc1OP(C)(=O)Nc1c(C)cccc1C (stereo not drawn) | inactive
48 | O=P1(Nc2ncccn2)COc2ccccc2OC1 | inactive
49 | Cc1ccc(OCC(=O)OC2CN3CCC2CC3)cc1 (stereo not drawn) | inactive
50 | O=[As](O)(c1cccs1)c1cccs1 | inactive
51 | O=P1(Nc2ccc(Br)cn2)COc2ccccc2OC1 | inactive
52 | CCCOc1ccc(NP(C)(=O)Oc2ccc(Cl)cc2)cc1 (stereo not drawn) | inactive
53 | CP(=O)(Nc1ccc(SC(F)(F)F)cc1)Oc1ccccc1 (stereo not drawn) | inactive
54 | Nc1cccc([As](=O)(O)c2ccccc2)c1 | inactive
55 | COc1cc(C2NCCC3(OCCO3)C2(C)C)cc(OC)c1OC.O=[N+]([O-])c1cc([N+](=O)[O-])c(O)c([N+](=O)[O-])c1 (stereo not drawn) | inactive
56 | Cc1ccc(C(=O)OC2CN3CCC2CC3)cc1 (stereo not drawn) | inactive
57 | CC1CCC(C(C)C)C(OP(=O)(Nc2ccccn2)c2ccccc2)C1 (stereo not drawn) | inactive
58 | Cc1nn(-c2ccccc2)c2c1P(=O)(N1CCOCC1)N(C)C(c1ccccc1)=N2 (stereo not drawn) | inactive
59 | O=C(/C=C/c1ccccc1)OC1CN2CCC1CC2 (stereo not drawn) | inactive
60 | CCOC(=O)C(CC)C1=NC(C)(C)Cc2ccccc21.O=[N+]([O-])c1cc([N+](=O)[O-])c(O)c([N+](=O)[O-])c1 (stereo not drawn) | inactive
61 | CN(C)C1(CNC(=O)c2ccc(S(C)(=O)=O)cc2)CCCCC1 | inactive
62 | O=[N+]([O-])c1cc([N+](=O)[O-])c(Nc2nnnn2CCO)c([N+](=O)[O-])c1 | inactive
63 | COc1ccccc1CNC(=O)COC(=O)C(O)(c1ccccc1)c1ccccc1 | inactive
64 | O=[N+]([O-])c1cc([N+](=O)[O-])c(-c2cnn(-c3ccccc3)c2)c([N+](=O)[O-])c1 | inactive
65 | CC1(CBr)Cn2c(nc3ccccc3c2=O)S1 (stereo not drawn) | inactive
66 | O=[As](O)(c1ccccc1Br)c1ccccc1Br | inactive
67 | CN(C(=O)Cc1ccc(Cl)c(Cl)c1)[C@@H]1CCCC[C@H]1N1CCCC1 | inactive
68 | CC(C)/C=N\N=C(\N)N[N+](=O)[O-] | inactive
69 | CCOP(=O)(Nc1ccc(C)cn1)OCC | inactive

Row | Compound | outcome
70 | CN(CCCl)Cc1cc(Cl)c(NC2=NCCN2)c(Cl)c1 | inactive
71 | O=[N+]([O-])c1cc([N+](=O)[O-])c(-n2nnc3ccccc32)c([N+](=O)[O-])c1 | inactive
72 | CCOP(=O)(NC(=NC(C)c1ccccc1)NC(C)c1ccccc1)OCC (stereo not drawn) | inactive
73 | CCC1=CC2Cc3nc4ccc(Cl)cc4c(N)c3C(C1)C2 (stereo not drawn) | inactive
74 | O=P1(Nc2ccccn2)COc2ccccc2OC1 | inactive
75 | CC(C)(C)C(=O)NC(Sc1ncccn1)C(Cl)(Cl)Cl (stereo not drawn) | inactive
76 | Clc1n[nH]nc1-c1nn[nH][15n]1 | inactive
77 | Cc1ccc(C)c(NP(C)(=O)Oc2ccccc2)c1 (stereo not drawn) | inactive
78 | CCCOP(=S)(Nc1nc(N)cc(=O)[nH]1)OCCC | inactive
79 | Cc1ccc(NCCc2c([N+](=O)[O-])cc([N+](=O)[O-])cc2[N+](=O)[O-])cc1 | inactive
80 | Nc1cccc2c([As](=O)(O)O)cccc12 | inactive
81 | Cc1cc(C)cc(OP(C)(=O)Nc2ccccn2)c1 (stereo not drawn) | inactive
82 | CP(=O)(Nc1cccc(Br)c1)Oc1ccccc1 (stereo not drawn) | inactive
83 | CCOP(=O)(Nc1cccc2ccccc12)OCC | inactive
84 | COc1ccccc1OP(C)(=O)Nc1cccc(Br)c1 (stereo not drawn) | inactive
85 | CS(=O)(=O)c1ccc(Cl)c(NC(=O)COC(=O)C(O)(c2ccccc2)c2ccccc2)c1 | inactive
86 | O=[As](O)(O)c1cccnc1 | inactive
87 | COc1cc(C(=O)NCC2(N3CCOCC3)CCCCC2)cc(Cl)c1OC(C)C | inactive
88 | O=C(OC1CN2CCC1CC2)c1ccc(Cl)cc1 (stereo not drawn) | inactive
89 | CCOC(=O)c1ccc(NP(C)(=O)Oc2cc(C)cc(C)c2)cc1 (stereo not drawn) | inactive
90 | Cc1cc(C)cc(OP(C)(=O)Nc2ccc(C)cc2C)c1 (stereo not drawn) | inactive
91 | Cc1cccc(OCC(=O)OC2CN3CCC2CC3)c1 (stereo not drawn) | inactive
92 | O=[As](O)(c1cccc(O)c1)c1cccc(O)c1 | inactive

Row | Compound | outcome
93 | NC(=O)Nc1ccc([As](=O)(O)O)cc1 | inactive
94 | CC1=NCCc2c1[nH]c1ccccc21.O=[N+]([O-])c1cc([N+](=O)[O-])c(O)c([N+](=O)[O-])c1 | inactive
95 | CN(C(=O)Cc1ccc(Cl)c(Cl)c1)[C@H]1CC[C@@]2(CCCO2)C[C@@H]1N1CCCC1 | inactive
96 | O=[N+]([O-])c1ccc2c(c1)nnn2O | inactive
97 | CN(C)C(=O)c1cc([N+](=O)[O-])cc2c1-c1c(cc([N+](=O)[O-])cc1[N+](=O)[O-])C2=O | inactive
98 | CCOP1(=S)c2c(C)nn(CCC#N)c2N=C(c2ccc(F)cc2)N1C (stereo not drawn) | inactive
99 | CN(C(=O)Cc1ccccc1)[C@@H]1CC[C@]2(CCCO2)C[C@H]1N1CCCC1 | inactive
100 | N#CCCN(C(=O)COC(=O)C(O)(c1ccccc1)c1ccccc1)c1ccc(F)cc1 | inactive
101 | CS(=O)(=O)c1cc([N+](=O)[O-])c2no[n+]([O-])c2c1 | inactive
102 | O=P(Nc1nccs1)(Oc1ccccc1)Oc1ccccc1 | inactive
103 | O=P(Nc1nccs1)(c1ccccc1)c1nc2ccccc2s1 (stereo not drawn) | inactive
104 | O=C(O)c1cccc(Nc2c([N+](=O)[O-])cc([N+](=O)[O-])cc2[N+](=O)[O-])c1 | inactive
105 | CCOP1(=S)c2c(C)nn(CCC#N)c2N=C(c2ccccc2F)N1C (stereo not drawn) | inactive
106 | O=C(O)COc1ccc([As](=O)(O)O)cc1[N+](=O)[O-] | inactive
107 | Nc1ccccc1[As](=O)(O)c1ccccc1 | inactive
108 | Cc1ccc(NP(C)(=O)Oc2ccccc2)c(C)c1 (stereo not drawn) | inactive
109 | CC(C)c1ccc(OP(=O)(Nc2ccccn2)Oc2ccccc2F)cc1 (stereo not drawn) | inactive
110 | COc1ccccc1OP(C)(=O)Nc1ccc(C)cc1 (stereo not drawn) | inactive
111 | ClCCSc1nnc(-c2cccnc2)o1 | inactive
112 | CCOC(=O)c1ccc(NP(C)(=O)Oc2ccccc2)cc1 (stereo not drawn) | inactive
113 | Cc1cc(C)cc(OP(C)(N)=O)c1 (stereo not drawn) | inactive
